A selection: hits, their analogues and other compounds. The true share with any hit is near 2.2%.
A549 tox: kills or reduces viability of A549 cells in Nrf2 counter-screen | 390,000 tested, 0.16% active | Potency, µM (highest dose often 46 µM), actives largely listed as inhibitors | A549 ARE-Fluc cells, CellTiter-Fluor viability, 18-24 h
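A549 ARE_Fluc cells in 5% FBS OPTI-MEM were exposed to compounds in concentration-response for 18-24 h at 37 deg C. Viability was read by CellTiter-Fluor fluorescence (Ex 405/Em 525) after 30 min, before the luciferase read.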
GALK inhibitor: inhibitors of human galactokinase; 270,000 tested, 0.007% active; P51570; Potency, µM (doses to about 57.5 µM), usual class: inhibitors; Purified GALK, Kinase-Glo residual ATP luminescence
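GALK at 5 nM final was combined with compound, 35 uM ATP and 100 uM galactose in HEPES pH8.0 with MgCl2 and DTT. The reaction ran one hour at room temperature before luminescent ATP detection.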
Nrf2 inh: blocks Nrf2 signaling. A549 ARE-Fluc reporter, luciferase luminescence, 18-24 h. Potency, µM (doses to about 46 µM), most hits filed as inhibitors. 360,000 tested, 2.1% active. AID 504444; note: nearly all actives have a fitted effect of over 60% in size
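In this cell-based qHTS, ARE-driven firefly luciferase in A549 cells reports Nrf2 activity; the luminescent signal after BugLite lysis is the measured value, with a prior CellTiter-Fluor read for cell health.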
Nrf2 activator: activates Nrf2 signaling; 410,000 tested, 0.31% active; AREc32 ARE-luciferase reporter (MCF7-derived line), luminescence, 24 h; Potency, µM (series often up to 46.1 µM), actives largely listed as activators; note: nearly all actives have a fitted effect of over 65% in size
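Reporter line AREc32 (ARE-Fluc), seeded overnight in OPTI-MEM with 5% FBS; compound pin-transferred, 24 hr at 37 deg C, 5% CO2; luminescent read-out.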
miR-21 reporter: raises the signal of a miR-21 reporter | AID 2288 | 340,000 tested, under 10 active | Potency, µM (series often up to 38.3 µM) | HeLa miR-21 FLuc reporter, luciferase, 48 h; active = well fitted rising curve with a large enough effect; inconclusive = small, poorly fitted or top-dose-only effect; inactive = no such curve, though single readings can be large or run the other way;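 further: miR-21 action dims this reporter so a rising signal means less miR-21 action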
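Using DMEM plus 10% FBS, HeLa miR-21-FLuc cells are incubated with test compounds (final up to about 40uM) for 48 hours; firefly luciferase signal is then imaged following reagent-mediated lysis.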
PI4K2A block: blocks human PI4K2A kinase activity; Q9BTU6; purified PI4K2A, ADP-Glo luminescence, 1 h; stronger effect = lower value; activity change, negative = inhibition, % at 76.9 µM; 420,000 tested, 0.13% active; AID 1346378; in the data active = activity change below about -50%; inconclusive = mostly about -30% to -49%
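In this quantitative HTS, ADP production by PI4K2A was quantified luminescently after 1 h at ambient temperature; 100 microM adenosine served as plate-quality control.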
Numbers stand for hits; - = inactive; ? = inconclusive; . = not tested or not shown; [ ] = dose if it differs, or a comment. Unless noted, calls come from the whole dose curve; as a rule, active = well fitted curve in the direction sought with a large enough effect; inconclusive = small, poorly fitted or top-dose-only effect, or another doubt; inactive = no such curve, though single readings can be large; an effect the other way counts as inactive or inconclusive.

SMILES	A549 tox	GALK inhibitor	Nrf2 inh	Nrf2 activator	miR-21 reporter	PI4K2A block
COc1cc2c(cc1OC)CN(C(=O)[C@H](C)N[C@@H](CCc1ccccc1)C(=O)O)[C@H](C(=O)O)C2	.	.	.	.	.	-
CC(=O)N/N=C/c1c(C)[nH]n(-c2ccccc2)c1=O	?	-	15µM	-	-	-
Cc1[nH]n(-c2ccccc2)c(=O)c1/C=N\NC(=O)C1COc2ccccc2O1 (stereo not drawn)	-	-	16µM	-	-	-
COCC(=O)N/N=C/c1c(C)[nH]n(-c2ccccc2)c1=O	?	-	15µM	-	-	?
C[C@H]1[C@H](NC(=O)c2ccc(Cl)c(Cl)c2)CC[C@@]23CCCN2C(=O)CCC[C@@H]13	.	.	.	.	.	-
Nc1[nH]n2c(=O)c3c(nc2c1N=Nc1ccccc1)CCCC3	13µM	-	.	-	-	-
Nc1[nH]n2c(=O)c3c(nc2c1N=Nc1ccc(Cl)cc1)CCCC3	-	-	.	-	-	-
COCCn1c(C)cc(C(=O)COC(=O)c2[nH]c(C)c(C(C)=O)c2C)c1C	-	.	23µM	-	.	-
CCOc1ccc(C(=O)n2cnnc2N)cc1	-	-	13µM	-	-	-
O=C(Nc1nnc(-c2cccnc2)s1)c1cnc2ccccc2c1	.	.	.	.	.	-
CC(=O)Nc1cc(C(=O)OCC(=O)c2ccc(Cl)cc2Cl)ccc1C	-	.	?	-	-	-
CC(C)C(=O)Nc1cccc(C(=O)OCC(=O)c2ccc(Cl)cc2Cl)c1	?	-	21µM	-	-	-
O=C(Cn1cnc2onc(-c3ccc(F)cc3)c2c1=O)Nc1cccc(C(F)(F)F)c1	-	.	23µM	-	?	-
Cc1[nH]c2ccccc2c(=O)c1C(=O)/C=C/c1ccccc1	?	-	18µM	?	?	-
C/C(CC(=O)Nc1ccc(Cl)c(C(F)(F)F)c1)=N\NC(=O)c1ccccc1O	?	-	23µM	-	-	-
Cc1cc(=O)n(C(C)C(=O)N2CCCc3ccccc32)c2c1c(C)nn2-c1ccccc1 (stereo not drawn)	?	.	18µM	-	?	-
CC(=O)c1cccc(NC(=O)C(C)n2c(=O)cc(C)c3c(C)nn(-c4ccccc4)c32)c1 (stereo not drawn)	-	.	?	-	-	-
Cc1c[nH]c2cccc(-c3ccc(OCc4ccccc4)cc3)c12	.	.	.	.	.	-
COc1cc2c(cc1O)CC[C@@H]1[C@@H]2CC[C@]2(C)[C@@H](O)CC[C@@H]12	-	-	9.2µM	-	-	-
NC(=O)NC1N=C([O][Al])NC1=O (stereo not drawn)	.	.	.	.	.	-
COc1cccc(/C=N/NC(N)=S)c1OCc1cccc(Cl)c1	-	-	16µM	-	?	-
Cc1sc2ncn(CC(=O)NCCCC(=O)Nc3ccc(C(C)C)cc3)c(=O)c2c1C	?	-	29µM	-	-	-
COc1ccccc1N1CCN(C(=O)CCCNC(=O)Cn2cnc3sc(C)c(C)c3c2=O)CC1	-	-	23µM	-	-	-
CN1C2CC(OC(=O)[C@H](CO)c3ccccc3)CC1C1OC12 (stereo partly drawn)	.	.	.	.	.	-
COc1ccc(C(C#N)c2ccc(=O)[nH]n2)cc1 (stereo not drawn)	-	-	-	-	-	-62
SMILES	A549 tox	GALK inhibitor	Nrf2 inh	Nrf2 activator	miR-21 reporter	PI4K2A block
[O-][n+]1cccc2c(Br)cc(Br)c(O)c21	-	-	-	?	-	-
C[n+]1cccc2c(Br)ccc([O-])c21	-	?	-	-	-	-61
CCCN(Cc1ccccc1)C(=S)Nc1cccc(C(F)(F)F)c1	-	-	21µM	-	-	-
C#CCNC(=O)C[C@H]1C[C@@]2(C(=O)OC)C(=C[C@H](C3CCCC3)O[C@@H]2C)N(Cc2ccc(Cl)cc2Cl)C1=O	.	.	.	.	.	-
Cc1ccc2c(CN3CCN(S(=O)(=O)c4ccc5c(c4)OCCO5)CC3)cc(=O)oc2c1C	-	-	16µM	-	-	-
Cc1ccc2c(CN3CCN(Cc4ccc5c(c4)OCO5)CC3)cc(=O)oc2c1C	-	-	-	-	-	-
Cc1nc2sc(C(=O)NCc3ccc4c(c3)OCO4)c(N)c2c(C)c1Cl	.	.	.	.	.	-
Cc1ccc(/C=C/c2nc3ccccc3n2S(=O)(=O)c2ccc(Br)cc2)cc1	-	.	.	-	-	-63
Cc1ccc(S(=O)(=O)n2c(N)nc3ccccc32)cc1	-	-	-	-	-	-
CCOc1cc(/C=C2\SC(=O)N(CC(=O)Nc3ccccc3F)C2=O)cc([N+](=O)[O-])c1O	?	-	18µM	-	-	-
COc1cc(/C=C2\SC(=O)N(CC(=O)Nc3ccccc3F)C2=O)cc(Cl)c1O	-	-	?	-	-	-
O=S(=O)(Nc1cc(O)cc2cccnc12)c1ccc(Br)s1	-	.	-	.	.	.
C=C1C(=O)O[C@@]23[C@H]1CC[C@@H](C)[C@@H]2CC[C@@]1(C)O[C@@H]31	?	.	15µM	-	.	-
CCOC(=O)c1c(NC(=O)CN2CCCCC2)sc2c1CCN(C(=O)OCC)C2	?	-	23µM	-	-	-
CCOC(=O)c1c(NC(=O)CN(CC)CC)sc2c1CCN(C(=O)OCC)C2	-[1.84 µM]	-	?	-	-	-
CCOC(=O)[C@@]12CCC3=C1N(CCC3)C(=O)[C@H](CC(=O)N1CCSCC1)C2	.	.	.	.	.	-
Clc1ccc(N2CCN(Cc3nnc(-c4ccc5c(c4)OCO5)o3)CC2)cc1	-	.	-	-	-	-
Cc1ccc(Cl)cc1N1CCN(Cc2nnc(-c3ccc4c(c3)OCO4)o2)CC1	-	.	21µM	-	-	-
O=C(Nc1ccccc1)n1ccc2ccc(-c3ccc4cc[nH]c4c3)cc21	.	.	.	.	.	-
COC(=O)C1=C(C)NC(=O)/C1=C\c1cc(C)n(-c2cc(C)cc(C)c2)c1C	?	-	23µM	-	-	-
CC1CCCC(C)N1CCCNC(=O)c1nn(C)c2c1CSc1ccccc1-2 (stereo not drawn)	-	-	?	-	-	-
CCCCNC(=O)c1nn(C)c2c1CSc1ccccc1-2	-	.	21µM	-	-	-
CCOc1ccccc1NC(=O)c1nn(C)c2c1CSc1ccccc1-2	-	.	18µM	-	-	-
Cn1nc(C(=O)Nc2ccccc2C#N)c2c1-c1ccccc1SC2	-	.	-	-	-	-
CN(C)C(=O)CNC(=O)Cc1ccccc1	.	.	.	.	.	-
COc1ccc(NC(=O)c2cc([N+](=O)[O-])ccc2O)cc1	?	-	?	-	?	-63
N#Cc1nc(Nc2ccc(-c3ccccc3)cc2)nc(NC2CCCC2)n1	-	.	?	.	.	.
COc1ccc(C2Nc3ccccc3C(=O)N2Cc2cccc3ccccc23)cc1COc1ccc(NC(C)=O)cc1 (stereo not drawn)	-	.	?	.	.	.
